In the assay the test system is rat mammary adenocarcinoma cells (ATCC 13762, Mat B cells). In words: MR imaging on a rat tumor model (tumor enhancement). In kind it is in vivo. As to conditions: Fisher 344 female rats, tail vein, dose 0.025 mmole Gd/kg, T1 weighted images at 2T. As for the experimental part: Imaging was done on a rat tumor model. Specifically, rat mammary adenocarcinoma cells (ATCC 13762, Mat B cells) were implanted in Fisher 344 female rats ([…] in 0.5 ml phosphate buffered saline). After 7-9 days, tumors were about 10 mm in diameter and the imaging was done at that point. Imaging was performed using a GE CSI scanner at 2T with a 33 cm bore. A birdcage quadrature coil was used for transmission and receiving. T1 weighted images were obtained (TR 250 ms, TE 18 MS, NEX 16). Rats were imaged prior to injection of contrast agent. […] The rats were then imaged immediately after injection and then at 24 hours. Imaging efficacy was 67% tumor enhancement compared to 15% for globular (albumin (Gd)DTPA) or coiled (25-35% free lysine content) agents at the same dose.

Turning to “albumin (Gd)DTPA: globular contrast agent, albumin carrying Gd-DTPA”, the “tumor enhancement (imaging efficacy)” value was determined as 15%.

The values are drawn from patent publication US20040022733A1, “Conjugated lysine copolymers” (priority 2002, published 2004).
